The chains behind the UniProt entries cited, without tags or fusion partners.
UniProt P35372, whole entry: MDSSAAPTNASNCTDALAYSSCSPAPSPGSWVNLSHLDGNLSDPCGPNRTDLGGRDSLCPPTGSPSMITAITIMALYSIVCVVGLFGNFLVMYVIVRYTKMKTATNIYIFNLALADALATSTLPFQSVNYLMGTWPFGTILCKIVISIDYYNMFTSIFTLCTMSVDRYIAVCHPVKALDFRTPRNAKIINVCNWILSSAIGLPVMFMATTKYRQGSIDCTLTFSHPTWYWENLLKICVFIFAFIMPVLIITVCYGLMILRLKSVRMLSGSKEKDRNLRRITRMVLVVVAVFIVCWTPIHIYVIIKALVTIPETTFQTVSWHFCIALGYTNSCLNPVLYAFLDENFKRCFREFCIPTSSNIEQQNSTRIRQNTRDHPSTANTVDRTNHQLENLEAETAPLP
UniProt P41143, whole entry: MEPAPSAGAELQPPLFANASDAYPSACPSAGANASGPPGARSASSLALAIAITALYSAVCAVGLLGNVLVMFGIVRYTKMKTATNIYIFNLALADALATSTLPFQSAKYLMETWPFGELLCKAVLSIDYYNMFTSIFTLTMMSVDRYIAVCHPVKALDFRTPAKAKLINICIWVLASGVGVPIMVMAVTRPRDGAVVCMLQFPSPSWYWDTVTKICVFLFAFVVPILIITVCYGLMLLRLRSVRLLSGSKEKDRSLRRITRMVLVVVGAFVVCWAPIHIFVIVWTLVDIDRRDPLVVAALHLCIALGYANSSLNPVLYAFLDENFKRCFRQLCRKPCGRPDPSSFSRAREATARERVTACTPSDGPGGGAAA

In ChEMBL document CHEMBL3396991 (Eur J Med Chem, 2015):

Experiments:
Mu-type opioid receptor = Mu-type opioid receptor (Homo sapiens, UniProt P35372); experiment: Displacement of [3H]diprenorphine from human recombinant mu opioid receptor expressed in HEK cells after 60 mins; assay type: cell-based, HEK293
[1] = target: Delta-type opioid receptor (Homo sapiens, UniProt P41143); experiment: Displacement of [3H]DADLE from human recombinant delta opioid receptor expressed in HEK cells after 60 mins; assay type: cell-based, HEK293

With `CC(C)[C@@H](CN1CC[C@@](C)(c2cccc(O)c2)[C@@H](C)C1)NC(=O)[C@H]1Cc2ccc(O)cc2CN1` [JDTIC] the Ki (Mu-type opioid receptor) was 4 nM and the Ki [1] was 36.1 nM.
